Assays:
[1] = molecular target: Histone deacetylase (Homo sapiens) (UniProt Q13547+O15379+Q9UBN7+Q92769+Q9UQL6+Q8WUI4+Q9BY41+Q96DB2+P56524+Q9UKV0+Q969S8); assay: Inhibition of HDAC in human MCF7 cells assessed as increase in alpha-tubulin incubated for 24 hrs by Western blot analysis; type: cell-based; conditions: dose 2-8 µM
[2] = molecular target: Estrogen receptor (Homo sapiens) (UniProt P03372); assay: Antagonist activity at ER-alpha in human MCF7 cells incubated for 6 to 24 hrs by Western blot analysis; type: cell-based; conditions: filed as antagonist, dose 2-8 µM, time 6-24 hrs

Amino acid sequences for entries named in this document (tags omitted). A change or cut given only in a name is not applied to a line headed by its entry.
UniProt Q13547: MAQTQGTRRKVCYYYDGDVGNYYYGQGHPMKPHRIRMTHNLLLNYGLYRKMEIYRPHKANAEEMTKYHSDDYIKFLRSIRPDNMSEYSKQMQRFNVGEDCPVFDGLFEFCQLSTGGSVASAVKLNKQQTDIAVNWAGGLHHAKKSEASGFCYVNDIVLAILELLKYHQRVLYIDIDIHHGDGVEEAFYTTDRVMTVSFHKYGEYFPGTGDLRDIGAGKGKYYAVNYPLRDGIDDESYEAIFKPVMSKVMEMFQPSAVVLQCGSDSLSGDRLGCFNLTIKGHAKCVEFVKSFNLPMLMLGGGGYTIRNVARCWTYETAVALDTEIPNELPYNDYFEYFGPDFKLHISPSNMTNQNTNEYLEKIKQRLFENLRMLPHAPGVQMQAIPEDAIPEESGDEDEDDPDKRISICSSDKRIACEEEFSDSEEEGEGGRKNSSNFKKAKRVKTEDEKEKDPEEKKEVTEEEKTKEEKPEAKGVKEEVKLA
UniProt Q9UBN7: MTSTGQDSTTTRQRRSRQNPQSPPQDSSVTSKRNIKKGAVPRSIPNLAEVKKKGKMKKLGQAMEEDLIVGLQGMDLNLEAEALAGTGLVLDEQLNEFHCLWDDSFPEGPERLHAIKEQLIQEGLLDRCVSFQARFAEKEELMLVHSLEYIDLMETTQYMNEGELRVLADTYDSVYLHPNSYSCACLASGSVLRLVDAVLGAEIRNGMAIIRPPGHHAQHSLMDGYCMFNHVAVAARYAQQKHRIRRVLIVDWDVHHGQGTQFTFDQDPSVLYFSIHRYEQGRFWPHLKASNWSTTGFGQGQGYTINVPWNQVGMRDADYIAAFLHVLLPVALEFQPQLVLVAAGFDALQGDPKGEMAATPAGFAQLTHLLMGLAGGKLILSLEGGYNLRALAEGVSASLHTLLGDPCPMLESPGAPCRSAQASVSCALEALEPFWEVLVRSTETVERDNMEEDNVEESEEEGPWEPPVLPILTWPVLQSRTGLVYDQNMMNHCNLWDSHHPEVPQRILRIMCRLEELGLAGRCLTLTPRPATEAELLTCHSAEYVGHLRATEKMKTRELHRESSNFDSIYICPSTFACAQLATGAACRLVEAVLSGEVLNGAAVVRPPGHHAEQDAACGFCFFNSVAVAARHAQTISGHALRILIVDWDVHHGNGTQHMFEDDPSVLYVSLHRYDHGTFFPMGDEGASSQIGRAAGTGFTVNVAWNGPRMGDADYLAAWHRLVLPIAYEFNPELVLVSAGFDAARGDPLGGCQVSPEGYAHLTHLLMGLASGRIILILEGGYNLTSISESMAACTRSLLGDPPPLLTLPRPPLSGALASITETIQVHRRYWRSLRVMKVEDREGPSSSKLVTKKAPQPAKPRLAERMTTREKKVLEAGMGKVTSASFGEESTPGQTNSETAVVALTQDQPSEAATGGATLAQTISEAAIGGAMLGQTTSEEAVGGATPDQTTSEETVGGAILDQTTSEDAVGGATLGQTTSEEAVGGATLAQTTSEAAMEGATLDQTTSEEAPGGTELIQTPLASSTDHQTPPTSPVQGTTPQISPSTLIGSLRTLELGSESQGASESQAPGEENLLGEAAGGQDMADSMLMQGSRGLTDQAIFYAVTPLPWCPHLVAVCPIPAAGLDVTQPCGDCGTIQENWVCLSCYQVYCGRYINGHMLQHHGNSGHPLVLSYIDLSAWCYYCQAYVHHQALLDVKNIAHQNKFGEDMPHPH
UniProt Q92769: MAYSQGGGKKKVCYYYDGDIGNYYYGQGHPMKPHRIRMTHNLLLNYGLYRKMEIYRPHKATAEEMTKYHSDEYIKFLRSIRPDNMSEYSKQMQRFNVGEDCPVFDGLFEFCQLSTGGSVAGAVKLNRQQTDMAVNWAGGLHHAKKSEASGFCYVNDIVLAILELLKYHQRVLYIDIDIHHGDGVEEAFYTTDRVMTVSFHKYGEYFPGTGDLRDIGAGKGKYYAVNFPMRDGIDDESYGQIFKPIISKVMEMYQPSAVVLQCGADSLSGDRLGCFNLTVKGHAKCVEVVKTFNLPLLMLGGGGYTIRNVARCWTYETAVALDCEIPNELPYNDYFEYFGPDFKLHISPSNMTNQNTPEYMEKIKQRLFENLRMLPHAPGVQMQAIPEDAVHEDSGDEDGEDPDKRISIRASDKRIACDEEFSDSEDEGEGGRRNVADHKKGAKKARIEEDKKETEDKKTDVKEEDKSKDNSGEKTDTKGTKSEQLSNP
UniProt Q9UQL6: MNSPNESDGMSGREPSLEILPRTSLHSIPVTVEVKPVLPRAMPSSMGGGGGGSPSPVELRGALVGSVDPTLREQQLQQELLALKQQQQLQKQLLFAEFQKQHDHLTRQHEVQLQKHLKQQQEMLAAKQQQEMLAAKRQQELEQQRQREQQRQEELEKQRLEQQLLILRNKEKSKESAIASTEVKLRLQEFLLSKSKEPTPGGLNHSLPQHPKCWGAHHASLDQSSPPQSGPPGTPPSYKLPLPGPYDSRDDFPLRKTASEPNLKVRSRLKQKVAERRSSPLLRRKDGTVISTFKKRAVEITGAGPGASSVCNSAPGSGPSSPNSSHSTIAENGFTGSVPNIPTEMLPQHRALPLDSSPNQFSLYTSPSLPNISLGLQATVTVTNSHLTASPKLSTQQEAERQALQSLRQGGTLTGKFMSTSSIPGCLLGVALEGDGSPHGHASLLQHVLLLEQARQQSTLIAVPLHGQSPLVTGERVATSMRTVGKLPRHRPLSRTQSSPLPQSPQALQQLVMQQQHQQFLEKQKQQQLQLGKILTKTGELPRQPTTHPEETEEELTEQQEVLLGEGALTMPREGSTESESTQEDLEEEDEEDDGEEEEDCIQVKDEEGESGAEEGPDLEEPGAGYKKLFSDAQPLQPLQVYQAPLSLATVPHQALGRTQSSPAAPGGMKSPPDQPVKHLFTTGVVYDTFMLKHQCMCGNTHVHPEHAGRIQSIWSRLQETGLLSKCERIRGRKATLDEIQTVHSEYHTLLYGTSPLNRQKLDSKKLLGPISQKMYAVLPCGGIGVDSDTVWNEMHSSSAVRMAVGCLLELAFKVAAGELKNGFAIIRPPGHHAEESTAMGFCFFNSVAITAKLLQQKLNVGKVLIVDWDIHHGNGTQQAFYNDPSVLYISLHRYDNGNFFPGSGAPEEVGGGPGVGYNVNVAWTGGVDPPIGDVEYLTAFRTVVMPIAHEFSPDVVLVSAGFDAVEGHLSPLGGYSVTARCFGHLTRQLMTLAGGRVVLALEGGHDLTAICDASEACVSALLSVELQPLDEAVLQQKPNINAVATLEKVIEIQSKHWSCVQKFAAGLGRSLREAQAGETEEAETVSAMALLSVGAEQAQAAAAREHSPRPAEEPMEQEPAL
UniProt Q8WUI4: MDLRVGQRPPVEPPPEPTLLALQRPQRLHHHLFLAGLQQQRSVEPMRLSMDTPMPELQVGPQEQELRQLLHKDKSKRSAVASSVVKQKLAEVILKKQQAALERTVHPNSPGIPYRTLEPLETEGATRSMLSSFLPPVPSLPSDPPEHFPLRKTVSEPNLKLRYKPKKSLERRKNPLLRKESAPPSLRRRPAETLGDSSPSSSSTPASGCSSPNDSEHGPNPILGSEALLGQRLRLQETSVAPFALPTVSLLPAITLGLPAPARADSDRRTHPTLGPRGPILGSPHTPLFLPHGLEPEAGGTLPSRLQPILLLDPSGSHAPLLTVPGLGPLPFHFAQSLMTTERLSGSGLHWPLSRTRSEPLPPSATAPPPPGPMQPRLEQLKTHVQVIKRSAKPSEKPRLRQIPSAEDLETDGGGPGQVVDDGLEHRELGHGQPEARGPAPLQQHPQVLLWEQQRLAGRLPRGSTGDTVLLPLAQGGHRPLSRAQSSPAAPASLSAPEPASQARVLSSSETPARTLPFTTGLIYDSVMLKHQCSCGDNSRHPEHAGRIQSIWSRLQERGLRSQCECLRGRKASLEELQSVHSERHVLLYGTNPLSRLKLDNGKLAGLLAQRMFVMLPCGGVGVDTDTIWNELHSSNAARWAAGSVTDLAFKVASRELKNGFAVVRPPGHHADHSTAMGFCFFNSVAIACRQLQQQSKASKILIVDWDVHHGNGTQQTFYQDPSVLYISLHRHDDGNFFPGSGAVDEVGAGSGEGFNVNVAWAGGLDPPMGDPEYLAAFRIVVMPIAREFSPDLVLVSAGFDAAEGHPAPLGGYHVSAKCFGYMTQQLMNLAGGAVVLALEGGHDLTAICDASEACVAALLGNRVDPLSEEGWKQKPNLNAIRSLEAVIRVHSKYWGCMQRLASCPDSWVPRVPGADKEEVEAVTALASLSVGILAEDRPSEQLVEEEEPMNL
UniProt Q9BY41: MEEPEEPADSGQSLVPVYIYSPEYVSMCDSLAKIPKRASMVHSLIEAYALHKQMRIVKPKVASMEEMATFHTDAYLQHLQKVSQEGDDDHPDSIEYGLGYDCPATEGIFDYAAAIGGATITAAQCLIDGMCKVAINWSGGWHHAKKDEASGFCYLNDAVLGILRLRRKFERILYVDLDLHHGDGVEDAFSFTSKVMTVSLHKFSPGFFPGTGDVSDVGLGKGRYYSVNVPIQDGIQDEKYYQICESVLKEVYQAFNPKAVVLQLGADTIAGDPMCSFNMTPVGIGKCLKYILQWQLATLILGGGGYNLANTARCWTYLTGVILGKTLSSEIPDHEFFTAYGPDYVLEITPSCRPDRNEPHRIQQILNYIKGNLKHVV
UniProt Q96DB2: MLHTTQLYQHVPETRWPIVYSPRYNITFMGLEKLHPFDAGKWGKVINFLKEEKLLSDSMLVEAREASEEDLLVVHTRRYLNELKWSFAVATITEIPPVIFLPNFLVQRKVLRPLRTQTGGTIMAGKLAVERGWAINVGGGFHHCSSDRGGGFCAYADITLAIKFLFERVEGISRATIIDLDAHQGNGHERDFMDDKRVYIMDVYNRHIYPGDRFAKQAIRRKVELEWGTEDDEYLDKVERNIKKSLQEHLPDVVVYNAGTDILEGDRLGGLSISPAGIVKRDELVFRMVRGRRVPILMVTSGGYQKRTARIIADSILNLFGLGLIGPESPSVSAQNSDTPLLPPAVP
UniProt Q9UKV0: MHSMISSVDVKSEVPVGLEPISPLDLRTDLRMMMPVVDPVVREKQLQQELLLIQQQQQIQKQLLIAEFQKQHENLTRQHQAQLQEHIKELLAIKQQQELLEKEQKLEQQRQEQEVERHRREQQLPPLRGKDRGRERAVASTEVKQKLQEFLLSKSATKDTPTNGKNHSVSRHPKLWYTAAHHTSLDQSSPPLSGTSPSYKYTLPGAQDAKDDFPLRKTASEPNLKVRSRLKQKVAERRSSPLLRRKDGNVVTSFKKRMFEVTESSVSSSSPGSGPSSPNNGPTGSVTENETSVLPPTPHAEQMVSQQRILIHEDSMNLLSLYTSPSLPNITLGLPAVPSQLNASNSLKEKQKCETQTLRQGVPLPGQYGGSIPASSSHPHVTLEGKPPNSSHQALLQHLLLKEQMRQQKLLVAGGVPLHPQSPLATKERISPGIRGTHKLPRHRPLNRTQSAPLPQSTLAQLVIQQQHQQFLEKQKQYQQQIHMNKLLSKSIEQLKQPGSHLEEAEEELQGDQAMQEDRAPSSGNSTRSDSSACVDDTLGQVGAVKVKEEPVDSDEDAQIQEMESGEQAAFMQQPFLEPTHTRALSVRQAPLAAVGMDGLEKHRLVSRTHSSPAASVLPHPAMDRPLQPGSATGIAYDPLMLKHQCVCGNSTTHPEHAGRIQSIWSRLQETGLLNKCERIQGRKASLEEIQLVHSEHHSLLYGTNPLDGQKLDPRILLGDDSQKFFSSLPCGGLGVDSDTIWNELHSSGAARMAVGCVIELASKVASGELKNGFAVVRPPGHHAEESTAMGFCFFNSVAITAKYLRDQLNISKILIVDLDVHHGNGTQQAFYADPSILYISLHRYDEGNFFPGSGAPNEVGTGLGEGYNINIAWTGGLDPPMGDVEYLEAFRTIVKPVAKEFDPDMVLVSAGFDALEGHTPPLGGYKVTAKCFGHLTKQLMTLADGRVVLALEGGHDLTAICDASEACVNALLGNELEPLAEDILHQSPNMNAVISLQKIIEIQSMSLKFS
UniProt P03372, whole entry: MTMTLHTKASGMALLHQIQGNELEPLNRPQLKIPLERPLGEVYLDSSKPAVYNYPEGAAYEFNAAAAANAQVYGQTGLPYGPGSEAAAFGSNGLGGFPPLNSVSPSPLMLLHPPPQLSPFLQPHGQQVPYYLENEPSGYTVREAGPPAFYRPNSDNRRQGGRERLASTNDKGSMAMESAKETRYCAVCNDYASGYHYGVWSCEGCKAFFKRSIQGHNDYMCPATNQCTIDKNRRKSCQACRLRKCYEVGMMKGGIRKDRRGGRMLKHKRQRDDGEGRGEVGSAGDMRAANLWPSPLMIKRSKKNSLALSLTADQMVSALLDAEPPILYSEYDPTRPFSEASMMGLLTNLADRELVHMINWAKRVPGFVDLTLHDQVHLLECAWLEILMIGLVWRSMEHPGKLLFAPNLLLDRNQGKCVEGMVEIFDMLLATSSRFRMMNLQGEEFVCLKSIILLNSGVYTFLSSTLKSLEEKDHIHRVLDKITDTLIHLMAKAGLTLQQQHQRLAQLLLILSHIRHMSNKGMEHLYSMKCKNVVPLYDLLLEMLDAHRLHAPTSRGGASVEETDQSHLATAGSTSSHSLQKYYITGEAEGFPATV

| inhibition [1] | Activity [2] | Structure (SMILES) |
| --- | --- | --- |
| Dose-Dependent Effect | – | O=C(CCCCCc1ccc(-c2sc3cc(O)ccc3c2C(=O)c2ccc(OCCN3CCCCC3)cc2)cc1)NO |
| Dose-Dependent Effect | – | O=C(CCCCCOc1ccc(-c2sc3cc(O)ccc3c2C(=O)c2ccc(OCCN3CCCCC3)cc2)cc1)NO |
| – | Dose-Dependent Effect | O=C(CCCCCCC(=O)Nc1ccccc1)NO |
